The nature of the experiment: Inhibition of AKT (unknown origin). Details: species or system Homo sapiens.

As to `CCCCCCCCCCCCCCCCCCOP(=O)([O-])OC1CC[N+](C)(C)CC1` [PERIFOSINE], inhibition was half-maximal at 4.7 µM (IC50).

One may read the IC50 as the point on the concentration scale where inhibition reaches its midpoint.

The values above are taken from ChEMBL document CHEMBL5512615, “Targeting autophagy drug discovery: Targets, indications and development trends” (Eur J Med Chem, 2024).
